Patent US20200199102A1, “COMPOUNDS THAT PARTICIPATE IN COOPERATIVE BINDING AND USES THEREOF” (Revolution Medicines, Inc., priority 2017, published 2020)

Sequences of proteins named here, by UniProt entry; tags and fusion partners are left off.
UniProt P62937, whole entry: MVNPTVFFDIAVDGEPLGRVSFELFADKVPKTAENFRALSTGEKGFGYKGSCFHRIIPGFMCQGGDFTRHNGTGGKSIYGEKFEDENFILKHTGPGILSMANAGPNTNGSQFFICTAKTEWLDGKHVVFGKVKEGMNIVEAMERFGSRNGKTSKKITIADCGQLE

target: Cyclophilin A (Homo sapiens, UniProt P62937); assay: AlphaLISA inhibition of binding of biotinylated Cyclosporin A to FLAG tagged Cyclophilin A; conditions: test concentration not given

Compared with `C/C=C/C[C@@H](C)[C@@H](O)[C@H]1C(=O)N[C@@H](CC)C(=O)N(C)CC(=O)N(C)[C@@H](C(C)C)C(=O)N[C@@H](C(C)C)C(=O)N(C)[C@@H](CC(C)C)C(=O)N[C@@H](C)C(=O)N[C@H](C)C(=O)N(C)[C@@H](CC(C)C)C(=O)N(C)[C@@H](CC(C)C)C(=O)N(C)[C@@H](C(C)C)C(=O)N1C`, `C/C=C/C[C@@H](C)[C@@H](O)[C@H]1C(=O)N[C@@H](CC)C(=O)N(C)CC(=O)N(C)[C@H](C)C(=O)N[C@@H](C(C)C)C(=O)N(C)[C@@H](CC(C)C)C(=O)N[C@@H](CC(C)C)C(=O)N[C@H](C)C(=O)N(C)[C@@H](CC(C)C)C(=O)N(C)[C@@H](CC(C)C)C(=O)N(C)[C@@H](C(C)C)C(=O)N1C` is higher in “% signal” value: 0.40% for the first, 4.29% for the second.

With `C/C=C/C[C@@H](C)[C@@H](O)[C@H]1C(=O)N[C@@H](CC)C(=O)N(C)CC(=O)N(C)[C@H](C)C(=O)N[C@@H](CC(C)C)C(=O)N(C)[C@@H](C)C(=O)N[C@@H](C)C(=O)N[C@H](C)C(=O)N(C)[C@@H](CC(C)C)C(=O)N(C)[C@@H](CC(C)C)C(=O)N(C)[C@@H](C(C)C)C(=O)N1C` the “% signal” value was 6.27%.
